## Measured affinities in a library of Ab-14 light chain variants

From the AlphaSeq antibody data of Li et al. 2023 (doi:10.1038/s41467-023-39022-2), copy in the FLAb collection.

Antigen: PDVDLGDISGINAS, a 14-residue peptide of the SARS-CoV-2 spike HR2 region.

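The starting antibody came from a phage panning campaign against this peptide. Designed CDR sequences, proposed from the first random library and measured here. Several design methods are mixed in this list. Affinity was read by AlphaSeq, a pooled yeast mating assay with surface-displayed partners. The frequency of each diploid, read from paired DNA barcodes, reflects how well the two displayed proteins bind. The ratio of observed to expected reads was calibrated, replicate by replicate, on BCL2-family standards whose Kd was known from biolayer interferometry. There are six technical replicates.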

Each scFv is VH, a (GGGGS)3 linker, VL, as in the parent Ab-14, and differs from it in the CDRs of the light chain only.
VH: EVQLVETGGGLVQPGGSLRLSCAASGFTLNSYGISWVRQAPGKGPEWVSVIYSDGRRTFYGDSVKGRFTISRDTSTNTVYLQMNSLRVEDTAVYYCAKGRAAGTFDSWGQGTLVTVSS
VL: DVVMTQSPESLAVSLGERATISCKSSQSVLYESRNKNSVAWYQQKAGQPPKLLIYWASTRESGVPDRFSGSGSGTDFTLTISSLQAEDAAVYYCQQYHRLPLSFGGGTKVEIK

Variants are written as CDR1, CDR2 and CDR3 of the light chain (limits as in the source). Parent: KSSQSVLYESRNKNSVA, WASTRES, QQYHRLPLS. Variants here have more than six changes. Each Kd is an estimate from the mating assay, the geometric mean of the replicates in which the pair was seen; lower is stronger. Where no diploid with the target was found in any replicate, the entry reads "not detected": below detection, most likely a poor binder, though not proof of it. The range of this assay differs from that of the first round, and the authors advise against merging the two. Empty control strains, which show no peptide, gave a signal in 4% of pairings with all light chain designs; the median was 430 nM and 95% of these signals were weaker than 38 nM. No background was subtracted. Also given: how often the same scFv was detected with the empty control strains. In the paper, a design with two or fewer of six values counts as a poor binder.

CDR-L1,CDR-L2,CDR-L3,Kd,detected,empty controls
KLYQSMGYLSHNKQSIA,DMSRREN,QQYHRLPLS,990 pM,6 of 6,2 of 18
KLQQSELGLSRNMNSVA,HASTRES,QQYHRLPLS,830 pM,6 of 6,1 of 18
KFGMSVLMGSYVRNSVA,QQSTREN,QQYDRLPLS,15 nM,6 of 6,0 of 18
TISQMFLGQSRNRNSVA,QASTRES,QSYDRLPLS,8.7 nM,6 of 6,0 of 18
NLPMKELGMSWNANNVA,DSENRMK,QQYSRLPLM,780 nM,4 of 6,4 of 18
MISDLTMYGSRNKNSVA,DLSMRGS,QQYHRLPLS,1.8 nM,6 of 6,0 of 18
QLRDEQWAEGMNIQSIA,ENEVSKD,QQYNRLPLS,190 nM,3 of 6,1 of 18
MMSQVTGMGQRHRNNVA,QTSEREP,QQYDRLPLV,6.8 nM,6 of 6,0 of 18
KISQMYRYESQNSSSIA,EVSTRLN,QSYHRLPLS,150 nM,1 of 6,1 of 18
AVSYQLRPGREIQNPIA,EGSHRAA,QQYDRLPLG,3.1 nM,6 of 6,2 of 18
RLTSHESESKAADASVA,DENTRGD,QQYHRLPLF,48 nM,6 of 6,2 of 18
MVNMHDEGFQGHKDNIA,NAATKEG,QHYARLPLV,12 nM,6 of 6,4 of 18
MISQLMNLGQFAINSVA,QATIRNS,QQYDRLPLA,170 nM,6 of 6,2 of 18
SFDLTKSGMENQQYSIA,ERNELMT,QDYHRLPLA,36 nM,6 of 6,0 of 18
KLSQVTHSEHRNKNSIA,EMVTREK,QQYDRLPLS,120 nM,6 of 6,2 of 18
KQQILVEQESRQKNSVA,NASTRCE,QQYHRLPLS,12 nM,6 of 6,1 of 18
TLGASTLEESRNKNSVA,EMSLRES,QSYNRLPLS,9.5 nM,6 of 6,0 of 18
SISGFMKSLAAHANSVA,DMTNRED,QQYNRLPLS,1.0 nM,6 of 6,0 of 18
MMSQVTGSGTRHRNNVA,QTSMREP,QQYDRLPLV,17 nM,5 of 6,0 of 18
MMSQVTGLGQRHRNNVA,QTSTRED,QQYDRLPLV,4.3 nM,6 of 6,2 of 18
NISIEDYSEHNFANNVA,STDCRCD,QQYFMLPLM,not detected,0 of 6,0 of 18
KIGHGLTTETRNRNSVA,QTETRVS,QHYHRLPLS,200 nM,2 of 6,0 of 18
KLVQSEGYESRNKNNVA,GASQRES,QQYHRLPLS,390 pM,6 of 6,1 of 18
NVGNEDPGQNYMHDSIA,GRSLRVE,QQYWRLPLL,4.5 nM,6 of 6,1 of 18
IFSQSVMMGNLTRNSVA,QASTRFN,QQYHRLPLI,320 nM,4 of 6,0 of 18
HLQDWGIYGMENMDSIA,EREKLEM,QQYFRLPLS,2.9 nM,6 of 6,3 of 18
KLSMITGHMSTQKNNVA,EMETREN,QQYNRLPLA,17 nM,6 of 6,0 of 18
KVQQKNLYESRMKNSVA,NASLRES,QQYHRLPLS,1.1 nM,6 of 6,1 of 18
KLRQVTGYESYLKNSVA,QTSTRAE,QDYNRLPLS,2.0 nM,6 of 6,2 of 18
NFSQMVLTGSTLKNSVA,HASTREE,QQYHRLPLI,11 nM,6 of 6,1 of 18
KLSQSELYEDRNTNSVA,NASQRCS,QQYHRLPLS,450 pM,6 of 6,0 of 18
TLGQVTMQLSVNYNSVA,DANTSED,QQYDRLPLS,not detected,0 of 6,0 of 18
KIGMTLNQLMHQKNNVA,DLVQREN,QQYYRLPLS,2.5 nM,6 of 6,1 of 18
MFSQLMEYGSRYKNSIA,QASTREN,QQYHWLPLS,not detected,0 of 6,0 of 18
MISQLMNMGQFAINSVA,QASLRYN,QQYDRLPLM,130 nM,2 of 6,0 of 18
TISGTLMFGMRNRSNVA,EVSERLN,QQYDRLPLF,380 nM,4 of 6,0 of 18
TISQMTSWMSNQKNNVA,EVQTREN,QQYDRLPLS,9.4 nM,6 of 6,2 of 18
HCSQSVGQEERQKNSVA,AASTREQ,QQYHRLPLS,2.2 nM,6 of 6,2 of 18
HISMSMNYLSRNKNSIA,EESTRED,QQYFRLPLS,650 pM,6 of 6,0 of 18
KLSGSWLYQSRNSNAVA,EASQREQ,QQYHRLPLS,830 pM,6 of 6,1 of 18
KLSQGWLYESREKNSVA,NASQREE,QQYHRLPLS,1.6 nM,6 of 6,0 of 18
TLVQSVMGSSRTRNSVA,NAETRED,QHYHRLPLS,6.2 nM,6 of 6,2 of 18
RIMYEYDSSVDKYNAVA,QAHIRAQ,QHYNRLPLS,83 nM,6 of 6,2 of 18
NISMSVGMTSFNKNSVA,ENSTREN,QQYDRLPLS,840 nM,5 of 6,0 of 18
MISQLYNMGTFAINSVA,QASIRNA,QQYDRLPLT,not detected,0 of 6,0 of 18
HLEQSSLYESRNKNSVA,NASQRCS,QQYHRLPLS,1.2 nM,6 of 6,1 of 18
TIGQTLMIGVRNRSNVA,EVSERLN,QQYDRLPLM,70 nM,6 of 6,0 of 18
TLGDVTRQESNKKSSIA,DMSNRAD,QQYHRLPLS,1.9 nM,6 of 6,0 of 18
TLGDVTRMESNKKSSIA,DMSNRAD,QQYHRLPLE,2.2 nM,6 of 6,1 of 18
TISQMSTLFSQSINNVA,EVSTREE,QQYDRLPLV,24 nM,6 of 6,0 of 18
KIDMSLNYEPHALNSIA,EEVMHTA,QQYDKLPLF,290 nM,1 of 6,0 of 18
MISQLMNLGQFAINSVA,QAEIRNN,QQYDRLPLA,16 nM,4 of 6,0 of 18
NITQIFDNMGDQRSNVA,NGETLFH,QQYDRLPFL,9.2 nM,6 of 6,2 of 18
KMSQSVDYEDRNCNAVA,SASQREE,QQYHRLPLS,2.0 nM,6 of 6,1 of 18
KLLQSVLDESRNDNSVA,NASHRLS,QQYHRLPLS,11 nM,6 of 6,2 of 18
SLQESEREMDSHEQNIA,DGTEHMR,QQYFQLPLH,15 nM,6 of 6,1 of 18
KIGMQVTYESTVNNAIA,QMETREE,QQYHRLPLS,9.6 nM,6 of 6,1 of 18
IIEQGEYEQEQHKNAIA,SGHERPR,QQYYKLPLV,4.6 nM,6 of 6,1 of 18
MVSQLMLWGLHAKNSIA,EAQTRLN,QQYDRLPLI,65 nM,6 of 6,0 of 18
MFSQGVMVGWLTRNSVA,NSSTRES,QQYERLPLS,3.9 nM,6 of 6,0 of 18
HLGGLMTWEEKARNSIA,QQETRAE,QQYHHLPLS,2.9 nM,6 of 6,1 of 18
MIGQGLMGESRAKNSIA,HASLRFD,QHYHRLPLI,300 nM,5 of 6,1 of 18
MIAAGLRGVGRNKNSVA,NAQTREA,QHYHRLPLS,25 nM,6 of 6,1 of 18
KLSAQYGVQSVMRNSVA,QNSTREE,QQYDHLPLS,not detected,0 of 6,0 of 18
ILYESVGTLSRNKNSVA,DNSTRED,QQYDRLPLS,270 nM,6 of 6,0 of 18
IVSQLMIWGMHLKNSIA,EAQTRLN,QQYDRLPLF,not detected,0 of 6,0 of 18
QMTGQLFEQGNRYEPIA,HESMKEK,QQYFQLPLT,33 nM,5 of 6,1 of 18
HSSPSWYYDSRNKNHVA,DATTRES,QQYHRLPLT,2.8 nM,6 of 6,1 of 18